Key:
human 5-HT4B receptor = human 5-HT4B receptor (Homo sapiens, UniProt P34969); experiment: cAMP formation in intact Cos-7 cells transiently expressing the receptor; details: for FOLD cAMP STIMULATION relative to basal levels: drug 1 μM, intact Cos-7 cells
[1] = target: clone hp78a (human 5-HT4B receptor) (Homo sapiens, UniProt P34969); experiment: Competition of [3H]5-HT binding to membranes of cells transiently expressing clone hp78a

Protein sequences, listed by entry. Tags and fused reporters are not part of them. Residues count along the entry.
UniProt P34969, 1-445 isoform P34969-2: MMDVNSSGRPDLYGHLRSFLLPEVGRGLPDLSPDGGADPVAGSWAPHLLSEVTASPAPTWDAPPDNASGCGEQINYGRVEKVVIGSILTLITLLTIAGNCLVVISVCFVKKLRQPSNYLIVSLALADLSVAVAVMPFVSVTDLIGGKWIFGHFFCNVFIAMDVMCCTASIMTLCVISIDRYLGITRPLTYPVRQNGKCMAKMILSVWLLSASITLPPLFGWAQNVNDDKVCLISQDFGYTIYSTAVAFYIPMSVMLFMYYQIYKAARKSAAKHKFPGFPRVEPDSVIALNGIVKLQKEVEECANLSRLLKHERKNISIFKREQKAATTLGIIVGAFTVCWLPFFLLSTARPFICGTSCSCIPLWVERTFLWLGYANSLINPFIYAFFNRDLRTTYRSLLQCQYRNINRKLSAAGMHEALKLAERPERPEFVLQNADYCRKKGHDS

SMILES | Ki in binding assays higher affinity than EC50 in functional assays (human 5-HT4B receptor) | agonist activity on cAMP (human 5-HT4B receptor) | Hill coefficient nH [1] | FOLD cAMP STIMULATION relative to basal levels (human 5-HT4B receptor) [fold] | FOLD cAMP STIMULATION relative to basal levels (human 5-HT4B receptor; listed as 8-OH-DPAT)
NCCc1c[nH]c2ccc(C(N)=O)cc12 [5-CT, 5-Carboxamidotryptamine] | approximately 100 fold | potent agonists | 0.95 ± 0.06 |  | 
CCCN(CCC)C1CCc2cccc(O)c2C1 (centres unmarked) [DPAT] |  |  |  | 1.7 ± 0.4 | about 2 fold

Source: patent US6376243B1, “DNA encoding a human serotonin receptor (5-HT4B) and uses thereof” (Synaptic Pharmaceutical Corporation, priority 1992, dated 2002)
